This is an account of results in US11725005B2.

Some results are limits rather than exact numbers.

The subject of this experiment is c-Abl2.

For orientation: IC50 means the concentration that inhibits the measured activity by half. Read a high IC50 as weaker potency. The molecule `Cc1ccc(NC(=O)c2ccc(CN3CCN(C)CC3)cc2)cc1Nc1nccc(-c2cncc(-c3cnns3)c2)n1` yielded an IC50 above 1000 nM.
